The nature of data set [1]: 1H NMR titration with octyloxy pyranoside β-Man. Format: binding. As to conditions: NMR titrations in CD2Cl2 at 298 K.
The test system of a further data set is Vero cells. Nature of the data set: Cellular toxicity, CellTiter-Glo, Vero cells. The conditions noted are these: read-out: TC50, Table 1, 72 h. In general terms: Cellular ATP, detected with luciferase, serves as a proxy for viable cell number.
A short description of data set [2]: Selectivity across the five octyloxy pyranosides from NMR titrations. Format: binding. The conditions noted are these: CD2Cl2, 298 K.
For another data set, the system named is HeLa cells. Nature of the data set: Cellular toxicity, CellTiter-Glo, HeLa cells. The conditions noted are these: read-out: TC50, Table 2, 72 h.
Data set [3] is described as follows: NMR dilution experiments for dimerization. As to conditions: dilution experiments in CD2Cl2. Format: physicochemical.

Consider “1,1′,1′″-([1,1′-biphenyl]-3,3′,5,5′-tetrayl)tetrakis(N-((1-methyl-1H-imidazol-2-yl)methyl)methanamine)”, for which the “Ka (M^−1) with β-Man” value in data set [1] (1:1 binding) worked out at 590 M⁻¹.
In the case of “(1E,1′E,1″E,1′″E)-N,N,N′,N″-([1,1′-biphenyl]-3,3′,5,5′-tetrayltetrakis(methylene))tetrakis(1-(1H-pyrrol-2-yl)methanimine)”, in data set [1] (1:1 binding), the “Ka (M^−1) with β-Man” value was 2400 M⁻¹. The CC50 turned out to be 46.1 µM with Vero cells and 17.6 µM in the data set on HeLa cells. The “glycan preference in words” value in data set [2] is “selective for β-Gal”. Besides, in data set [3], the dimerization in words entry is on record as “Dimerization was only observed”.
In the case of “(1E,1′E,1″E,1′″E)-N,N,N′,N″-([1,1′-biphenyl]-3,3′,5,5′-tetrayltetrakis(methylene))tetrakis(1-(furan-2-yl)methanimine)”, the “Ka (M^−1) with β-Man” value in data set [1] (1:1 binding) came out at 37 M⁻¹.
As for “(1E,1′E,1″E,1′″E)-N,N,N″,N″-([1,1′-biphenyl]-3,3′,5,5′-tetrayltetrakis(methylene))tetrakis(1-(thiophen-2-yl)methanimine)”, the “Ka (M^−1) with β-Man” value in data set [1] is reported as “c”. In addition, the “binding profile across the glycans in words” value in data set [2] is given as “did not have quantifiable binding”.
